Our source for the stoichiometry N values is PMC6042327.

For assay [1], the target named is T1, full-length SGTA (small glutamine-rich, tetratricopeptide repeat-containing protein alpha), 1-313 (human), O43765.
T1 chain: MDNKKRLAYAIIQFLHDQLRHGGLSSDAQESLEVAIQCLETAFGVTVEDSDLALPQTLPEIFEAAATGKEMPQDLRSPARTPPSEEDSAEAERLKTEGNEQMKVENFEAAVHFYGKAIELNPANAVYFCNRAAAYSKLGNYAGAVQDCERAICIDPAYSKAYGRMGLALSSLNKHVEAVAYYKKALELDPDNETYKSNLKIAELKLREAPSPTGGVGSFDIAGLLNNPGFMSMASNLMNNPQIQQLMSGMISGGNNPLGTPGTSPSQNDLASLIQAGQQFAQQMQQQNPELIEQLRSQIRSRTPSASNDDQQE
Kind of assay: native MS; protein 5-10 uM in 0.20-0.75 M ammonium acetate pH 7.0, electrosprayed, source temperature 20 °C; self-association (monomer to dimer). The following applies: remark: other sources report otherwise.

For assay [2], the target named is T1, full-length SGTA (small glutamine-rich, …). Description: SAXS; 10 mM KPi, 100 mM NaCl, pH 6.0, 25 °C, protein 0.5-8.8 mg/ml; molecular weight from forward scattering against bovine serum albumin; self-association. The conditions noted are these: remark: other sources report otherwise.

B1: full-length SGTA (small glutamine-rich, tetratricopeptide repeat-containing protein alpha), 1-313, O43765 1-313 (natural protein)
chain: T1 chain
Regarding B1, the stoichiometry N in assay [1] and in assay [2] was 2 throughout.
